From PubChem BioAssay AID1745844 (Carcinogenic Potency Database (CPDB), 2022)

Test system: rodent lifetime carcinogenesis bioassay, tumor incidence TD50
Experiment: carcinogenic potency in animals, long-term in vivo studies, CPDB compilation (AID 1745844)

## O=C1C2CC=CCC2C(=O)N1SC(Cl)(Cl)C(Cl)Cl (centres undefined)
mouse, strain B6C3F1, females, in feed, site: forestomach, lesion: several types, types named in the paper, dosed 93 weeks, study length 104 weeks
  TD50: 3140 mg/kg/day
mouse, strain B6C3F1, females, in feed, site: forestomach, lesion: squamous-cell carcinoma, dosed 93 weeks, study length 104 weeks
  TD50: 22600 mg/kg/day
mouse, strain B6C3F1, females, in feed, site: heart, lesion: hemangioendothelioma, dosed 93 weeks, study length 104 weeks
  TD50: 1400 mg/kg/day
mouse, strain B6C3F1, females, in feed, site: liver, lesion: hepatocellular carcinoma, dosed 93 weeks, study length 104 weeks
  TD50: 398 mg/kg/day
mouse, strain B6C3F1, females, in feed, site: liver, lesion: several types, types named in the paper, dosed 93 weeks, study length 104 weeks
  TD50: 89.4 mg/kg/day
mouse, strain B6C3F1, females, in feed, site: lung, lesion: adenocarcinoma, dosed 93 weeks, study length 104 weeks
  TD50: 134000 mg/kg/day
mouse, strain B6C3F1, females, in feed, site: small intestine, lesion: adenocarcinoma, dosed 93 weeks, study length 104 weeks
  TD50: 512 mg/kg/day
mouse, strain B6C3F1, females, in feed, site: small intestine, lesion: several types, types named in the paper, dosed 93 weeks, study length 104 weeks
  TD50: 359 mg/kg/day
mouse, strain B6C3F1, females, in feed, site: spleen, lesion: hemangioma, dosed 93 weeks, study length 104 weeks
  TD50: 1470 mg/kg/day
mouse, strain B6C3F1, males, in feed, site: forestomach, lesion: several types, types named in the paper, dosed 96 weeks, study length 104 weeks
  TD50: 1810 mg/kg/day
mouse, strain B6C3F1, males, in feed, site: forestomach, lesion: squamous-cell carcinoma, dosed 96 weeks, study length 104 weeks
  TD50: 6190 mg/kg/day
mouse, strain B6C3F1, males, in feed, site: heart, lesion: hemangioendothelioma, dosed 96 weeks, study length 104 weeks
  TD50: 647 mg/kg/day
mouse, strain B6C3F1, males, in feed, site: liver, lesion: hepatocellular carcinoma, dosed 96 weeks, study length 104 weeks
  TD50: 138 mg/kg/day
mouse, strain B6C3F1, males, in feed, site: liver, lesion: several types, types named in the paper, dosed 96 weeks, study length 104 weeks
  TD50: 144 mg/kg/day
mouse, strain B6C3F1, males, in feed, site: small intestine, lesion: adenocarcinoma, dosed 96 weeks, study length 104 weeks
  TD50: 151 mg/kg/day
mouse, strain B6C3F1, males, in feed, site: small intestine, lesion: several types, types named in the paper, dosed 96 weeks, study length 104 weeks
  TD50: 137 mg/kg/day
mouse, strain B6C3F1, males, in feed, site: spleen, lesion: hemangioendothelioma, dosed 96 weeks, study length 104 weeks
  TD50: 79100 mg/kg/day
mouse, strain B6C3F1, males, in feed, site: spleen, lesion: hemangioma, dosed 96 weeks, study length 104 weeks
  TD50: 1570 mg/kg/day
mouse, strain B6C3F1, males, in feed, site: spleen, lesion: several types, types named in the paper, dosed 96 weeks, study length 104 weeks
  TD50: 2560 mg/kg/day
mouse, strain Charles River CD1, females, in feed, site: all sites, lesion: hemangiosarcoma, dosed 104 weeks, study length 110 weeks
  TD50: 3130 mg/kg/day
mouse, strain Charles River CD1, females, in feed, site: all sites, lesion: lymphosarcoma, dosed 104 weeks, study length 110 weeks
  TD50: 1490 mg/kg/day
mouse, strain Charles River CD1, males, in feed, site: Harderian gland, lesion: adenoma, dosed 104 weeks, study length 110 weeks
  TD50: 298 mg/kg/day
mouse, strain Charles River CD1, males, in feed, site: all sites, lesion: hemangiosarcoma, dosed 104 weeks, study length 110 weeks
  TD50: 3310 mg/kg/day
mouse, strain Charles River CD1, males, in feed, site: all sites, lesion: lymphosarcoma, dosed 104 weeks, study length 110 weeks
  TD50: 1440 mg/kg/day
rat, strain Charles River CD (Sprague-Dawley), females, in feed, site: kidney, lesion: renal-cell carcinoma, dosed 104 weeks, study length 104 weeks
  TD50: 776 mg/kg/day
rat, strain Charles River CD (Sprague-Dawley), females, in feed, site: kidney, lesion: several types, types named in the paper, dosed 104 weeks, study length 104 weeks
  TD50: 916 mg/kg/day
rat, strain Charles River CD (Sprague-Dawley), females, in feed, site: liver, lesion: hepatocellular carcinoma, dosed 104 weeks, study length 104 weeks
  TD50: 781 mg/kg/day
rat, strain Charles River CD (Sprague-Dawley), females, in feed, site: liver, lesion: neoplastic nodule, dosed 104 weeks, study length 104 weeks
  TD50: 124 mg/kg/day
rat, strain Charles River CD (Sprague-Dawley), females, in feed, site: liver, lesion: several types, types named in the paper, dosed 104 weeks, study length 104 weeks
  TD50: 120 mg/kg/day
rat, strain Charles River CD (Sprague-Dawley), females, in feed, site: mammary gland, lesion: fibroadenoma, dosed 104 weeks, study length 104 weeks
  TD50: 71.6 mg/kg/day
rat, strain Charles River CD (Sprague-Dawley), males, in feed, site: kidney, lesion: renal-cell adenoma, dosed 104 weeks, study length 104 weeks
  TD50: 733 mg/kg/day
rat, strain Charles River CD (Sprague-Dawley), males, in feed, site: kidney, lesion: renal-cell carcinoma, dosed 104 weeks, study length 104 weeks
  TD50: 426 mg/kg/day
rat, strain Charles River CD (Sprague-Dawley), males, in feed, site: kidney, lesion: several types, types named in the paper, dosed 104 weeks, study length 104 weeks
  TD50: 272 mg/kg/day
rat, strain F344/DuCrj, females, in feed, site: kidney, lesion: renal-cell adenoma, dosed 104 weeks, study length 112 weeks
  TD50: 276 mg/kg/day
rat, strain F344/DuCrj, females, in feed, site: liver, lesion: hepatocellular carcinoma, dosed 104 weeks, study length 112 weeks
  TD50: 1010 mg/kg/day
rat, strain F344/DuCrj, females, in feed, site: liver, lesion: hyperplastic nodule, dosed 104 weeks, study length 112 weeks
  TD50: 64.4 mg/kg/day
rat, strain F344/DuCrj, females, in feed, site: thyroid gland, lesion: c-cell adenoma, dosed 104 weeks, study length 112 weeks
  TD50: 353 mg/kg/day
rat, strain F344/DuCrj, males, in feed, site: kidney, lesion: renal-cell adenoma, dosed 104 weeks, study length 112 weeks
  TD50: 30.3 mg/kg/day
rat, strain F344/DuCrj, males, in feed, site: kidney, lesion: renal-cell carcinoma, dosed 104 weeks, study length 112 weeks
  TD50: 345 mg/kg/day
rat, strain F344/DuCrj, males, in feed, site: liver, lesion: hyperplastic nodule, dosed 104 weeks, study length 112 weeks
  TD50: 104 mg/kg/day
rat, strain Fischer 344, males, in feed, site: kidney, lesion: several types, types named in the paper, dosed 102 weeks, study length 104 weeks
  TD50: 504 mg/kg/day
rat, strain Fischer 344, males, in feed, site: kidney, lesion: tubular adenoma, dosed 102 weeks, study length 104 weeks
  TD50: 5010 mg/kg/day
rat, strain Fischer 344, males, in feed, site: kidney, lesion: tubular carcinoma, dosed 102 weeks, study length 104 weeks
  TD50: 570 mg/kg/day

## C1CN1
mouse, strain B6AKF1, females, oral dosing, site: liver, lesion: hepatoma, dosed 76 weeks, study length 76 weeks
  TD50: 3.29 mg/kg/day
mouse, strain B6AKF1, females, oral dosing, site: lung, lesion: adenoma, dosed 76 weeks, study length 76 weeks
  TD50: 0.283 mg/kg/day
mouse, strain B6AKF1, males, oral dosing, site: liver, lesion: hepatoma, dosed 76 weeks, study length 76 weeks
  TD50: 0.8 mg/kg/day
mouse, strain B6AKF1, males, oral dosing, site: lung, lesion: adenoma, dosed 76 weeks, study length 76 weeks
  TD50: 0.485 mg/kg/day
mouse, strain B6AKF1, males, oral dosing, site: lung, lesion: bronchogenic carcinoma, dosed 76 weeks, study length 76 weeks
  TD50: 2.14 mg/kg/day
mouse, strain B6C3F1, females, oral dosing, site: liver, lesion: hepatoma, dosed 76 weeks, study length 76 weeks
  TD50: 0.5 mg/kg/day
mouse, strain B6C3F1, females, oral dosing, site: lung, lesion: adenoma, dosed 76 weeks, study length 76 weeks
  carcinogen call: positive
mouse, strain B6C3F1, males, oral dosing, site: any site (literature study), lesion: several types, types named in the paper, dosed 77 weeks, study length 77 weeks
  TD50: 0.223 mg/kg/day
mouse, strain B6C3F1, males, oral dosing, site: liver, lesion: hepatoma, dosed 77 weeks, study length 77 weeks
  TD50: 0.295 mg/kg/day
mouse, strain B6C3F1, males, oral dosing, site: lung, lesion: adenoma, dosed 77 weeks, study length 77 weeks
  TD50: 0.364 mg/kg/day
mouse, strain B6C3F1, males, oral dosing, site: lung, lesion: several types, types named in the paper, dosed 77 weeks, study length 77 weeks
  TD50: 0.295 mg/kg/day
